ChEMBL document CHEMBL1127932, “6-isoxazolinyl and isoxazolidinyl substituted quinazolinones as angiotensin II receptor antagonists” (Bioorg Med Chem Lett, 1994)

Sequences of proteins named here, by UniProt entry; tags and fusion partners are left off.
UniProt P25104, whole entry: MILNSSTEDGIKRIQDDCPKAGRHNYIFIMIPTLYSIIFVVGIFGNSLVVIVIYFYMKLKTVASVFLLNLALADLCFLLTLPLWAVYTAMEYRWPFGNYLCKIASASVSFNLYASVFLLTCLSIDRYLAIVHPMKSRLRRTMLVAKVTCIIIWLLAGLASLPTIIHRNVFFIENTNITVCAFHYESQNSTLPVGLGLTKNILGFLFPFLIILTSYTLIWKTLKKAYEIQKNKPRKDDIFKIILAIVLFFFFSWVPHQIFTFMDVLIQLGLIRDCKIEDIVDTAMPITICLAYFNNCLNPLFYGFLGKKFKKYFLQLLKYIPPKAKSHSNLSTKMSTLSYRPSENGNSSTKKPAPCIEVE

biological target: Type-1 angiotensin II receptor (Bos taurus, UniProt P25104); test: In vitro Angiotensin II receptor antagonism in bovine adrenal cortex tissue.; type: functional, tissue-based

IC50 [nM]	SMILES
22	CCCCc1nc2ccc([C@@]3(C)C[C@H]4CCCCN4O3)cc2c(=O)n1Cc1ccc(-c2ccccc2-c2nnn[nH]2)cc1
38	CCCCc1nc2ccc([C@@H]3C[C@H]4CCCCN4O3)cc2c(=O)n1Cc1ccc(-c2ccccc2-c2nn[nH]n2)cc1
47	CCCCc1nc2ccc([C@]3(C)C[C@H]4CCCCN4O3)cc2c(=O)n1Cc1ccc(-c2ccccc2-c2nnn[nH]2)cc1
